US8703104B2, “Use of metal astringents for the treatment of hairy heel warts” (Ecolab USA Inc, priority 2007, dated 2014)

Test system: hairy heel wart lesions on the cows
[1] = Day 0, prior to first treatment

O=S(=O)([O-])[O-].[Cu+2] [CuSO4, copper sulfate]
Lesion Appearance Score Distribution: number of cows with Grade Score 1 (Moist granular) [1]: 4
Lesion Appearance Score Distribution: number of cows with Grade Score 2 (granulated tissue, some moistness) [1]: 4
Lesion Color Score Distribution: number of cows with Grade Score 1 (Bright Red) [1]: 6
Lesion Color Score Distribution: number of cows with Grade Score 2 (Dark Red) [1]: 3
Lesion Pain Score Distribution: number of cows with Grade Score 2 (Major pain) [1]: 1
Locomotion Score Distribution: number of cows with Grade Score 2 (slightly abnormal gait) [1]: 4
Locomotion Score Distribution: number of cows with Grade Score 3 (arched back, abnormal gait) [1]: 1
Locomotion Score Distribution: number of cows with Grade Score 4 (arched back, feet can still bear some weight) [1]: 1
Lesion Appearance Score Distribution: number of cows with Grade Score 2 (granulated tissue, some moistness) (Day 5): 4
Lesion Appearance Score Distribution: number of cows with Grade Score 3 (Significant dry granulation) (Day 5): 1
Lesion Color Score Distribution: number of cows with Grade Score 2 (Dark Red) (Day 5): 5
Lesion Color Score Distribution: number of cows with Grade Score 4 (Very Dark Black; inactive lesion) (Day 5): 1
Lesion Pain Score Distribution: number of cows with Grade Score 0 (No pain) (Day 5): 4
Locomotion Score Distribution: number of cows with Grade Score 2 (slightly abnormal gait) (Day 5): 5
Lesion Appearance Score Distribution: number of cows with Grade Score 2 (granulated tissue, some moistness) (Day 10): 1
Lesion Appearance Score Distribution: number of cows with Grade Score 3 (Significant dry granulation) (Day 10): 4
Lesion Color Score Distribution: number of cows with Grade Score 1 (Bright Red) (Day 10): 1
Lesion Color Score Distribution: number of cows with Grade Score 2 (Dark Red) (Day 10): 5
Lesion Color Score Distribution: number of cows with Grade Score 3 (Dark Red/Grayish Black) (Day 10): 4
Lesion Color Score Distribution: number of cows with Grade Score 4 (Very Dark Black; inactive lesion) (Day 10): 1
Lesion Pain Score Distribution: number of cows with Grade Score 0 (No pain) (Day 10): 1
Lesion Pain Score Distribution: number of cows with Grade Score 2 (Major pain) (Day 10): 1
Locomotion Score Distribution: number of cows with Grade Score 2 (slightly abnormal gait) (Day 10): 7
Locomotion Score Distribution: number of cows with Grade Score 3 (arched back, abnormal gait) (Day 10): 1
Lesion Appearance Score Distribution: number of cows with Grade Score 3 (Significant dry granulation) (Day 14): 3
Lesion Color Score Distribution: number of cows with Grade Score 3 (Dark Red/Grayish Black) (Day 14): 3
Lesion Color Score Distribution: number of cows with Grade Score 4 (Very Dark Black; inactive lesion) (Day 14): 5
Lesion Pain Score Distribution: number of cows with Grade Score 0 (No pain) (Day 14): 5
Lesion Appearance Score Distribution: number of cows with Grade Score 2 (granulated tissue, some moistness) (Day 19): 1
Lesion Appearance Score Distribution: number of cows with Grade Score 3 (Significant dry granulation) (Day 19): 5
Lesion Color Score Distribution: number of cows with Grade Score 3 (Dark Red/Grayish Black) (Day 19): 5
Lesion Pain Score Distribution: number of cows with Grade Score 0 (No pain) (Day 19): 6
Locomotion Score Distribution: number of cows with Grade Score 2 (slightly abnormal gait) (Day 19): 1
Locomotion Score Distribution: number of cows with Grade Score 3 (arched back, abnormal gait) (Day 19): 1
Locomotion Score Distribution: number of cows with Grade Score 4 (arched back, feet can still bear some weight) (Day 19): 1
Average lesion appearance score (scale 1-5) (Grading Period 2 (Day 5)): 3.10
Average lesion appearance score (scale 1-5) (Grading Period 3 (Day 10)): 3.45
Average lesion appearance score (scale 1-5) (Grading Period 4 (Day 14)): 3.90
Average lesion appearance score (scale 1-5) (Grading Period 5 (Day 19)): 3.55
Cows that received a lesion appearance score of 4 or 5 (grading period 5): five

Where two headings read alike, the source gives them in different places.
